Measured values as given in article PMC1925065, “Functional characterization of two melanocortin (MC) receptors in lamprey showing orthology to the MC1 and MC4 receptor subtypes” (BMC Evolutionary Biology, 2007).

Biological target: T1, lamprey MCa receptor (Lampetra fluviatilis, UniProt A6XB56)
T1 sequence (A6XB56 1-341): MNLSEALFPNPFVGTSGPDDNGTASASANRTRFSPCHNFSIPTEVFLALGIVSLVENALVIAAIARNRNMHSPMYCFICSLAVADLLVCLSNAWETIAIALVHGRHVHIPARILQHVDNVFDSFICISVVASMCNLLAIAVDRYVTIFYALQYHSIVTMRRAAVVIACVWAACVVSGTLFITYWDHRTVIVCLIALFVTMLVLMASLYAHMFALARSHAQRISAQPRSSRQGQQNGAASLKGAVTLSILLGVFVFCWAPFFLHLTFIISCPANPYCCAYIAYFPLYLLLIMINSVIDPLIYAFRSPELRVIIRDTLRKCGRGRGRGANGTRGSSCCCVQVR
Test: Radioligand binding assay (saturation and competition, [125I] NDP-MSH), lamprey MCa
Design: species or system river lamprey
Conditions: HEK-293 EBNA membranes, 0.6 nM [125I] NDP-MSH, pH 7.4, 2 h, room temperature; mean ± SEM, duplicate, at least three independent experiments; * P < 0.01 (α-MSH, γ1-MSH, ACTH(1–39), MSH-A); read-out: Ki (mean ± SEM) from competition curves, lamprey MCa
Experimental: HEK-293 (human embryonic kidney) cells with Epstein-Barr nuclear antigen (EBNA) grown to 50–70% confluence were transfected with 10 μg of the construct using FuGENE-6 Transfection Reagent (Roche, Sweden) according to the manufacturers' instruction. The cells were grown in Dulbeccos Modified Eagle Media and F-12 Nutrient Mixture (D-MEM/F-12) (1:1) with GlutaMAX I containing 10% foetal bovine serum, 100 u/ml penicillin, 100 μg/ml streptomycin, 2.5 ug/ml amphotericin B, and 250 μg/ml geneticin G-418 (Invitrogen); in humidified atmosphere of 95% air and 5% CO2 at 37°C. Semi-stable cell lines, expressing target receptor, were obtained by selecting for growth in the presence of 100 μg/ml hygromycin B (Invitrogen), first added 24 hours after transfection.
HEK-293 EBNA cells expressing MC receptors were harvested from plate and resuspended in binding buffer composed of 25 mM HEPES, 2.5 mM CaCl2, 1 mM MgCl2 and 0.2% bacitracin, pH adjusted to 7.4. To obtain the membranes, cells were mechanically homogenized with Ultra Turrax. […] MeltiLex A scintillator sheets (Perkin Elmer, USA) were melted on dried filters and radioactivity was counted with an automatic Microbeta counter 1450 (Perkin Elmer). […] The results were analysed with Prism 3.0 software package (GraphPad, USA). […]

β-melanocyte stimulating hormone [β-MSH]
Ki: 54.7 ± 5.1 nM
